The text below walks through data of ChEMBL document CHEMBL1128040, “Acyl CoA:cholesterol acyltransferase (ACAT) inhibitors: heterocyclic bioisosteres for the urea group in DuP 128” (Bioorg Med Chem Lett, 1995).

The target of this test is T1, Sterol O-acyltransferase 1 (Mus musculus, UniProt Q61263).
T1 sequence (Q61263 whole entry): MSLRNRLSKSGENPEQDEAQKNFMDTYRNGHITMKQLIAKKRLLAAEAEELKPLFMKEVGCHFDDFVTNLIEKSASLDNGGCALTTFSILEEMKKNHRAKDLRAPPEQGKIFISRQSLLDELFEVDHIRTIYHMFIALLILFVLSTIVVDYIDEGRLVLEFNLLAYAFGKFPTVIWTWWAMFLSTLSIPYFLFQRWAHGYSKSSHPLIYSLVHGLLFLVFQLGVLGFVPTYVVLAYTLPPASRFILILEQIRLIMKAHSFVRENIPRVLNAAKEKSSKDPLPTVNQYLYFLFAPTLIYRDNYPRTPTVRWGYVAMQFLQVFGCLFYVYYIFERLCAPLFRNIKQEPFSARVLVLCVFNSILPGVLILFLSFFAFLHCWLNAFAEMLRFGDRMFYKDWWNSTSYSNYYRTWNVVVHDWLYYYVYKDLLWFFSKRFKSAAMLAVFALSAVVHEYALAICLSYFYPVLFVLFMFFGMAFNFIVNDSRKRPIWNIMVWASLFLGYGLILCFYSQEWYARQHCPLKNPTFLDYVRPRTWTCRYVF
The test can be described thus: Inhibition of Acyl coenzyme A:cholesterol acyltransferase in J774 Macrophage cell culture. The class given is cell-based.

What is called IC50 is the point on the concentration scale where inhibition reaches its midpoint. High values mean a need for much substance, low ones inhibition by little substance. As to `Cc1cc(C)n(CCCCCSc2nc(-c3ccccc3)c(-c3ccccc3)[nH]2)n1`, the half-inhibitory concentration (IC50) came to 90 nM.
